Assay results reported in US6187793A, “7-[(Piperidin-1-YL)-Propoxy]-chromen-4-one derivatives, their preparation and their pharmaceutical use” (Ferrer Internacional, S.A., priority 1997, dated 2001).

Amino acid sequences for entries named in this document (tags omitted).
UniProt P31389, whole entry: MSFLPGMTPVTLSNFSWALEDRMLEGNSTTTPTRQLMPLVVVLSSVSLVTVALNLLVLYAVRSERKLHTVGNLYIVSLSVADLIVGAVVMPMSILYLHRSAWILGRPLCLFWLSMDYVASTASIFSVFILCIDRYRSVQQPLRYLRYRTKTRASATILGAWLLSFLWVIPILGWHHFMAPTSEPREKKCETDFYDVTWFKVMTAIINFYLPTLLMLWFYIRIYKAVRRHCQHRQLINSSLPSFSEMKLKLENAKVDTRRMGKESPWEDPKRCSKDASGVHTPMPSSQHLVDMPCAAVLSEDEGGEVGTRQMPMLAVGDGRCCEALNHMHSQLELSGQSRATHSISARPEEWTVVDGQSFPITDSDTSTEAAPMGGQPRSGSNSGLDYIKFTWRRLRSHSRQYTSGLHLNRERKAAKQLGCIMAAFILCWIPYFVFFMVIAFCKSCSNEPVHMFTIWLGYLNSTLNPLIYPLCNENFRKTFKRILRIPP

Molecular target: histamine H1 receptors (Cavia porcellus, UniProt P31389)
Experiment: biochemical

`CC(CN1c2ccccc2Sc2ccccc21)N(C)C` (stereo not shown) [Promethazine, promethazine, reference compound] was tested, and the IC50 was 0.893 nM.
